Source: patent US20230323475A1, “TEST METHOD, OF DIVIDING BLASTIC PLASMACYTOID DENDRITIC CELL NEOPLASM (BPDCN) INTO SUBTYPES” (JAPANESE FOUNDATION FOR CANCER RESEARCH, priority 2016, published 2023)

How the values were obtained:
[1] = tested on: BPDCN cell line CAL-1 (MYC+BPDCN); assay: Cell survival rate (Cell Titer-Glo cell growth assay), CAL-1; assay type: cell-based; details: CAL-1, 48 hours after addition of the BET bromodomain-selective inhibitor, FIG. 6
From the text: (§1) The cell lines used were 4 lines: BPDCN cell lines CAL-1 (MYC^+BPDCN; Non Patent Literature 11; obtained from Nagasaki University) and PMDC05 (MYC-BPDCN; Non Patent Literature 12; obtained from Niigata University), a positive control plasma cell neoplasm KMS12PE (obtained from JCRB Cell Bank) having the increased expression of MYC, and a negative control leukemia cell line K562 (obtained from JCRB Cell Bank) in which no MYC gene rearrangement was seen.
(§2) The CAL-1, PMDC05, or KMN12PE cells at 4000 cells/well or K562 at 1000 cells/well were inoculated to 96-well cell culture plates. […] The cell survival rates were measured using a cell growth assay kit using CTG reagent (Cell Titer-Glo, manufactured by Promega Corp.).
(§3) Aurora kinase inhibitors, albeit not agents directly suppressing MYC expression, were analyzed for their effects in the present invention. […] Each inhibitor was added from 1 nm to 10000 nM to the medium of the cells of each line. 48 hours later, the survival rates of these cells were analyzed (FIG. 10).
(§4) Each inhibitor was added in the concentration of 1 nM to 10000 nM to the 4 cell lines described above. The survival rates of these cells were analyzed 48 hours later (FIG. 11).

[2] = tested on: BPDCN cell line PMDC05 (MYC-BPDCN); assay: Cell survival rate (Cell Titer-Glo cell growth assay), PMDC05; assay type: cell-based; details: PMDC05, 48 hours, inhibitor added at a high concentration, FIG. 6
From the text: as §1, §2, §3, §4

In the case of CCNC(=O)C[C@@H]1N=C(c2ccc(Cl)cc2)c2cc(OC)ccc2-n2c(C)nnc21 [I-BET762], the “survival rate of the CAL-1 cell line” value [1] is reported as “sharply decreased” and the “survival rate of PMDC05” value [2] is reported as “high survival rate”.
